Drawing on PubChem BioAssay AID601 (SRMLSC, 2007), this text covers differential viability (reversal) for one compound.

Molecules are shown by their SMILES. This is a selection; strong and weak results do not stand in their true shares. Activity calls are given as the source filed them.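 The calls were made as follows: active = viability loss from added drug above about 55%, and viability with drug at most 40%, in both replicates (limit read from the data, passing the limit was not always enough); inconclusive = both conditions met in only one replicate; inactive = neither replicate meets both conditions.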

A short description of the assay: reversal of MRP1-mediated doxorubicin resistance, pilot screen, H69AR cells, doxorubicin co-treatment (AID 601). As to conditions: H69AR cells + 2 uM doxorubicin, CellTiter-Glo, 72 h; at 10 µM; active compounds read high. In general terms: Cellular ATP, detected with luciferase, serves as a proxy for viable cell number.
With `Fc1ccccc1NC1CCN(Cc2ccccc2)CC1`, the differential viability (reversal) is inactive: 6.88%.
